{"source": "patent US20110263552A1", "about": "“MODULATION OF SIDE EFFECT PROFILE OF 5-ALPHA REDUCTASE INHIBITOR THERAPY” (SOV Therapeutics, priority 2009, published 2011)", "experiment": "Testosterone undecanoate (TU) solubility in various solubilizers", "details": "at 37 C."}
{"smiles": "CCCCCCCCCCC(=O)O[C@H]1CC[C@H]2[C@@H]3CCC4=CC(=O)CC[C@]4(C)[C@H]3CC[C@]12C", "note": "[TU, testosterone undecanoate]", "values": [{"measurement": "TU Solubility", "setting": "vehicle Glyceryl mono and dicapylate/caprate (Imwitor 742)", "result": 356, "unit": "mg/g"}, {"measurement": "TU Solubility", "setting": "vehicle Labrafil M 1944 CS", "result": 242, "unit": "mg/g"}, {"measurement": "TU Solubility", "setting": "vehicle Linseed oil", "result": 179, "unit": "mg/g"}, {"measurement": "TU Solubility", "setting": "vehicle Olive oil", "result": 161, "unit": "mg/g"}, {"measurement": "TU Solubility", "setting": "vehicle Phosal 50 PG (~50% Lecithin in PG, sunflower mono-diglycerides and ascorbyl palmitate)", "result": 138, "unit": "mg/g"}, {"measurement": "TU Solubility", "setting": "vehicle Sesame oil", "result": 138, "unit": "mg/g"}, {"measurement": "TU Solubility", "setting": "vehicle Soybean oil", "result": 113, "unit": "mg/g"}]}
